{"source": "patent US9856298B2", "about": "(priority 2011, dated 2018)", "test": "Serum stability / release of peptide in pure mouse serum (100%) (RP-HPLC, MALDI-MS)", "conditions": "6 h"}
{"substance": "tPEG^5000-GAR-VDKPPYLPRPRPPROIYNO-NH2 [tPEG^5000-GAR-Onc 72]", "values": [{"measurement": "uncleaved peptide remaining after the indicated time (instead of half-life)", "result": 86, "unit": "%"}]}
